Ab-91 heavy chain CDR variants: yeast mating affinities

Binding partner: SARS-CoV-2 spike HR2 peptide, sequence PDVDLGDISGINAS.

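The parent was found by panning a naive human phage display library on the peptide. Library AAYL51 holds single substitutions and randomly drawn double and triple substitutions in the CDRs. The scFvs were displayed on barcoded MATa yeast, the peptide on MATalpha yeast. Binding brings cells together so that they mate, and sequencing counts the barcode pairs among the diploids. Each replicate has its own calibration line, from reference interactions of the BCL2 family. Mating was done three times.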

Parent scFv Ab-91: VL joined to VH by a 15-residue (Gly4Ser)3 linker. Changes lie in the heavy chain CDRs alone.
VL: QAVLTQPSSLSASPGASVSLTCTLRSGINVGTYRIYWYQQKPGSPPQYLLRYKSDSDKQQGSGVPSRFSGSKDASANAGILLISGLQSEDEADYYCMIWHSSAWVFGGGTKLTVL
VH: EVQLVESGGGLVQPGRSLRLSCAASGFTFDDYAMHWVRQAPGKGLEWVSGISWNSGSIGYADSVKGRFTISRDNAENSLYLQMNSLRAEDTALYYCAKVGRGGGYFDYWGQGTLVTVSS

Positions count from residue 1 of the parent VH; D30T puts T in place of D.
Numbers give log10(Kd / nM), so 0 is 1 nM and 3 is 1 µM. Smaller is tighter.
Averages over replicates are reported, and they cover detected replicates only.
Where no diploid with the target was found in any replicate, the entry reads "not detected": below detection, most likely a poor binder, though not proof of it.
For reference, the parent read 1.86 as the reference entry and 0.88 as a member of this library.
Nonspecific signal, from three strains lacking the peptide, appeared in 21% of pairings of library AAYL51, centred on 4.54 (5% of these signals below 3.26); values are not corrected for it. Also given: how often the same scFv was detected with the empty control strains.

{"changes": "D30T+G50A+S55N", "mean log10 Kd (nM)": "not detected", "detected": "0/3", "signal with controls": "1/9"}
{"changes": "I58T+G100R+G102E", "mean log10 Kd (nM)": "3.78", "detected": "1/3", "signal with controls": "1/9"}
{"changes": "D31R+Y32S", "mean log10 Kd (nM)": "not detected", "detected": "0/3", "signal with controls": "0/9"}
{"changes": "G50S+S57P+I58V", "mean log10 Kd (nM)": "not detected", "detected": "0/3", "signal with controls": "1/9"}
{"changes": "G56C+V99M", "mean log10 Kd (nM)": "4.46", "detected": "2/3", "signal with controls": "4/9"}
{"changes": "S52C+A61H+G100A", "mean log10 Kd (nM)": "not detected", "detected": "0/3", "signal with controls": "1/9"}
{"changes": "G56K+Y108K", "mean log10 Kd (nM)": "1.75", "detected": "3/3", "signal with controls": "2/9"}
{"changes": "F27W+F29K+I51K", "mean log10 Kd (nM)": "2.81", "detected": "1/3", "signal with controls": "0/9"}
{"changes": "G50R+S52L+S55M", "mean log10 Kd (nM)": "not detected", "detected": "0/3", "signal with controls": "0/9"}
{"changes": "A33T+S52A+Y108E", "mean log10 Kd (nM)": "3.08", "detected": "1/3", "signal with controls": "0/9"}
{"changes": "M34G+G50S", "mean log10 Kd (nM)": "not detected", "detected": "0/3", "signal with controls": "0/9"}
{"changes": "G26D+G100L+Y108Q", "mean log10 Kd (nM)": "not detected", "detected": "0/3", "signal with controls": "0/9"}
{"changes": "S55G+S63W+G103R", "mean log10 Kd (nM)": "not detected", "detected": "0/3", "signal with controls": "1/9"}
{"changes": "F27L+K65Q+R101T", "mean log10 Kd (nM)": "4.07", "detected": "1/3", "signal with controls": "3/9"}
{"changes": "D31F+G100T+G103Y", "mean log10 Kd (nM)": "4.52", "detected": "1/3", "signal with controls": "2/9"}
{"changes": "Y32V+I51E+S57F", "mean log10 Kd (nM)": "not detected", "detected": "0/3", "signal with controls": "4/9"}
{"changes": "G104C+Y108D", "mean log10 Kd (nM)": "4.11", "detected": "1/3", "signal with controls": "0/9"}
{"changes": "I58K+R101Y+F106W", "mean log10 Kd (nM)": "4.79", "detected": "2/3", "signal with controls": "2/9"}
{"changes": "F27L+F29L+Y108V", "mean log10 Kd (nM)": "1.22", "detected": "3/3", "signal with controls": "6/9"}
{"changes": "A33V+Y60C+D107Y", "mean log10 Kd (nM)": "4.22", "detected": "2/3", "signal with controls": "2/9"}
{"changes": "T28I+A33Q+M34I", "mean log10 Kd (nM)": "3.44", "detected": "2/3", "signal with controls": "0/9"}
{"changes": "D31P+I58K+D62H", "mean log10 Kd (nM)": "not detected", "detected": "0/3", "signal with controls": "1/9"}
{"changes": "G26Y+Y32H+D62W", "mean log10 Kd (nM)": "not detected", "detected": "0/3", "signal with controls": "1/9"}
{"changes": "S55I+Y105S+D107E", "mean log10 Kd (nM)": "4.48", "detected": "2/3", "signal with controls": "0/9"}
{"changes": "S55T+Y60M+D62R", "mean log10 Kd (nM)": "not detected", "detected": "0/3", "signal with controls": "0/9"}
{"changes": "A33L+K65S", "mean log10 Kd (nM)": "4.74", "detected": "3/3", "signal with controls": "5/9"}
{"changes": "D30T+M34P+I58P", "mean log10 Kd (nM)": "5.00", "detected": "1/3", "signal with controls": "1/9"}
{"changes": "T28F+I58H+F106V", "mean log10 Kd (nM)": "4.23", "detected": "1/3", "signal with controls": "0/9"}
{"changes": "F29G+S55E+G59D", "mean log10 Kd (nM)": "4.26", "detected": "2/3", "signal with controls": "2/9"}
{"changes": "G26L+V99F+F106H", "mean log10 Kd (nM)": "5.51", "detected": "2/3", "signal with controls": "4/9"}
{"changes": "D30L+K65W", "mean log10 Kd (nM)": "3.95", "detected": "3/3", "signal with controls": "0/9"}

The closing 3 entries, repeated:

| changes | mean log10 Kd (nM) | detected | signal with controls |
|---|---|---|---|
| F29G+S55E+G59D | 4.26 | 2/3 | 2/9 |
| G26L+V99F+F106H | 5.51 | 2/3 | 4/9 |
| D30L+K65W | 3.95 | 3/3 | 0/9 |

Data: MIT Lincoln Laboratory AlphaSeq set, Engelhart et al. 2022, doi:10.1038/s41597-022-01779-4, as distributed in FLAb.